Data from article PMC11604427 (Frontiers in Pharmacology, 2024).

Chains of the proteins cited; added tags and fusions are not shown.
UniProt Q92769, whole entry, looked up: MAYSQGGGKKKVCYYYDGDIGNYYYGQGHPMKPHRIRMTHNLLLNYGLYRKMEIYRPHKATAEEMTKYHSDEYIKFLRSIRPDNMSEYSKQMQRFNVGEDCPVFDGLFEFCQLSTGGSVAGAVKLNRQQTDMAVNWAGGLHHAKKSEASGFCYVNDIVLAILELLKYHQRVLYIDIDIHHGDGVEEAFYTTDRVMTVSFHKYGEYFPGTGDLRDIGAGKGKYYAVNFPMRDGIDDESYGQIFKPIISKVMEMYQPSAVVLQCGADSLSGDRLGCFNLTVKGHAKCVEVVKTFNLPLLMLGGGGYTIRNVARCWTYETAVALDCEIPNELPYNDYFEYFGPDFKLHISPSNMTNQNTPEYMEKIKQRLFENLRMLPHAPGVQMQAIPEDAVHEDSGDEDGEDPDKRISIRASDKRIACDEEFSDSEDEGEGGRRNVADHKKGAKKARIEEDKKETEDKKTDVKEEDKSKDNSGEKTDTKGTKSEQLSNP

Biological target: Human recombinant HDAC2 enzyme (Homo sapiens, UniProt Q92769)
Assay: HDAC2 fluorescence enzyme inhibition assay (Boc-Lys(acetyl)-AMC)
Format: biochemical
Details: fluorescence signal-based method

Compound: Cc1ccc(O)c(C)c1-n1c(N)c(C(N)=O)c2nc3c(Br)cccc3nc21
- HDAC2 (IC50, nM): no inhibition
